Drawing on patent US4609758A, “Phenoxyethylamine derivatives” (American Home Products Corporation, priority 1985, dated 1986), this text covers IC50 for one molecule.

The test system of this experiment is synaptosomal uptake of serotonin (5-HT). Kind of experiment: Inhibition of synaptosomal serotonin (14C-5-HT) uptake. In kind it is biochemical. The note with it: synaptosomal uptake of 14C-5-HT, read-out: 5-HT uptake, inhibitory concentration at which the rate of uptake was reduced to 50 percent (IC50).

Take `CNCCC(Oc1ccc(C(F)(F)F)cc1)c1ccccc1` (stereo not shown) [Fluoxetine, reference compound]: the IC50 came out at 140 nM.
